Assay outcomes: PubChem, National Center for Advancing Translational Sciences (NCATS)
An excerpt weighted towards active compounds, which were near 0.78% of everything screened.
RXFP1 ag = RXFP1 (human) receptor agonism | AID 2676 | Potency, µM (highest dose often 57.5 µM), inactives show at the highest dose activation, actives largely listed as activators | HEK293T-RXFP1 cAMP TR-FRET, 30 min; response scale: percent of porcine relaxin response, buffer zero | 0.3% of 370,000 active | Q9HBX9; also: potency is read from the fitted curve at half-maximal effect; % is scaled to controls: 0 for no effect and ±100 for the full control effect; nearly all actives have a fitted effect of over 60% in size
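HEK293T cells stably expressing RXFP1 were pretreated with the PDE4 inhibitor Ro 20174, exposed to compounds for 30 min at 37C, lysed, and cAMP was read by TR-FRET. Data normalized to buffer (basal) and 29 nM porcine relaxin (100%).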
TCR act = T cell receptor activation. 330,000 tested, under 10 active. Potency, µM (titrated, usually from 9.22 µM), for the others: at the top dose activation of IL-2 secretion, actives largely listed as activators. primary human leukocytes, anti-CD3, IL-2 HTRF, 48 h; also: % of control where 0% means no effect
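TCR engagement came from a-CD3 beads alone, with compounds added to primary human leukocytes for 48 hr. Secreted IL-2 bridged europium cryptate- and d2-labelled anti-IL-2 antibodies, giving FRET emission at 665nm after 320nm excitation.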
RXFP1 antagonist = blocks the human relaxin receptor RXFP1; Q9HBX9; HEK293-RXFP1, relaxin-stimulated cAMP HTRF, 30 min; hits give low values; activity change, negative = inhibition, % at 57.5 µM; 0.59% of 350,000 active; AID 1259400;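 active = activity change of -60% or lower, but not beyond a set lower limit; inconclusive = change between -60% and -40%, or beyond the set limit; inactive = change above -40%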; also: % is scaled to controls: 0 for no effect and ±100 for the full control effect
miR-21 FLuc = miR-21 reporter, rising signal | HeLa miR-21 FLuc reporter, luciferase, 48 h | Potency, µM (top dose mostly 38.3 µM), inactives show at the highest dose reporter change, positive = more light | 340,000 tested, under 10 active | AID 2288; active = well fitted rising curve with a large enough effect; inconclusive = small, poorly fitted or top-dose-only effect; inactive = no such curve, though single readings can be large or run the other way;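 note: % of control where 0% means no effect; miR-21 action dims this reporter so a rising signal means less miR-21 action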
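HeLa cells endogenously expressing miR-21, stably carrying CMV-driven firefly luciferase with a downstream miR-21 binding site, 2000 cells/well. Titrations up to approximately 40 uM, 48 hours; luciferase luminescence read.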
IL2 activator = activates IL-2 in a cell-based reporter assay; activation, % (series mostly up to about 46 µM); AID 652025; IL-2 activation reporter assay, cell-based qHTS; stimulated with anti-CD3/CD4/CD28 beads; in transgenic mouse T cells; 0.065% of 360,000 active; in the data active = activation above about 50%; inconclusive = mostly about 30% to 49%; also: 0% is about no effect
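Quantitative HTS in unstimulated transgenic mouse T cells, with memory T cells as non-tolerant control and PMA/ionomycin as tolerance-bypass control. Compound pretreatment lasted 60 minutes before 18 h bead stimulation; EGFP/DsRed fluorescence read.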
PINK1 expr mod = PINK1 expression modulation; 0.2% of 410,000 active; PINK1 immunofluorescence, high-content cytometry, 24 h; Potency, µM (highest dose often 76.6 µM), for inactives: at the top dose activation (PINK1 increase), actives largely listed as activators; active = well fitted activation curve with a large enough effect; inconclusive = small, poorly fitted or top-dose-only effect; cell line not stated here; also: potency is read from the fitted curve at half-maximal effect; % of control where 0% means no effect; nearly all actives have a fitted effect of over 65% in size
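PINK1 protein level read as immunofluorescence by microplate cytometer in a fixed, stained stable cell line after 24 h exposure to five compound concentrations, with CCCP as control.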
The depositor's hits bear a star; ? = inconclusive; · = no result; [ ] = remark or other dose. Unless noted, calls follow the shape of the dose curve; as a rule, active = well fitted curve in the direction sought with a large enough effect; inconclusive = small, poorly fitted or top-dose-only effect, or another doubt; inactive = no such curve, though single readings can be large; an effect the other way counts as inactive or inconclusive.

(1) O=C(c1cnn(-c2nccc(-c3ccccc3F)n2)c1C1CC1)N1CCCCC1c1cccnc1 (stereo not given)
(2) COc1ccc(OC)c(-c2ccnc(-n3ncc(C(=O)N(C)CCO)c3C3CC3)n2)c1
(3) Cc1nc(CC(=O)NCC2Cc3cc(F)cc(-c4ccc(F)c(C)c4)c3O2)cs1 (stereo not given)
(4) Cc1sc(-n2c(C)cc(/C=C3\SC(=S)NC3=O)c2C)c(C#N)c1C
(5) Cc1cc(/C=C2\SC(=S)NC2=O)c(C)n1-c1cccc(O)c1
(6) O=S(=O)(c1ccccc1)N1CCC(c2ccncc2)CC1
entry no. | 1 | 2 | 3 | 4 | 5 | 6
RXFP1 ag | · | · | · | 1.1% | 1.4% | -0.8%
TCR act | · | · | · | -38.2% | 6.6% | ·
RXFP1 antagonist | · | · | · | -105.5* | -15.1 | -105.7*
miR-21 FLuc | · | · | · | -20.4% | -37.4% | 11.1%
IL2 activator | · | · | · | 1.0 | 3.4 | ·
PINK1 expr mod | 0.5% | -0.4% | -0.5% | 11.2%[38.3 µM] | 4.1% | -0.9%

4 of the entries above in order of the PINK1 expr mod value, descending.
No. | SMILES | PINK1 expr mod
5 | Cc1cc(/C=C2\SC(=S)NC2=O)c(C)n1-c1cccc(O)c1 | 4.1%
1 | O=C(c1cnn(-c2nccc(-c3ccccc3F)n2)c1C1CC1)N1CCCCC1c1cccnc1 (stereo not given) | 0.5%
3 | Cc1nc(CC(=O)NCC2Cc3cc(F)cc(-c4ccc(F)c(C)c4)c3O2)cs1 (stereo not given) | -0.5%
6 | O=S(=O)(c1ccccc1)N1CCC(c2ccncc2)CC1 | -0.9%

(list continues)
(7) C=CC[n+]1ccc2ccccc2c1C
(8) C=CC[n+]1ccc(/C=C2\C=Cc3cc(C)ccc3N2CC)c2ccccc21
(9) Cc1ccc(NC(=S)NNC(=O)c2cccc([N+](=O)[O-])c2)cc1Cl
(10) CCCCCCCC(=O)[O-].CCCCCCCC(=O)[O-].[Zn+2]
(11) COC(=O)c1sc(NC(=S)NNC(=O)c2c(Br)c(C)nn2C)c(C(=O)OC)c1C
(12) COC(=O)c1sc(S(=O)(=O)Nc2c(C)nn(C)c2C)c(C(=O)OC)c1C
entry no. | 7 | 8 | 9 | 10 | 11 | 12
RXFP1 ag | 0.2% | 4.6% | 2.7% | · | 25.1µM* | 1.0%
TCR act | -1.2% | 5.6% | -5.1% | · | -57.1% | -0.9%
RXFP1 antagonist | -10.3 | 0.5 | -7.3 | -19.3 | 30.7 | 7.9
miR-21 FLuc | -0.8% | ? | -32.0% | · | -0.4% | ·
IL2 activator | -0.9 | -0.6 | 0.3 | · | -3.7 | 0.9
PINK1 expr mod | -0.7% | 3.16µM* | 35.5µM* | · | ? | -2.6%

(13) COc1ccccc1NC(=O)/C(C#N)=C/C=C/c1ccco1
(14) CS(=O)(=O)c1ncc(Cl)c(C(=O)Nc2ccc(N3CCOCC3)cc2)n1
(15) CCOc1ccc(NC(=O)c2nc(S(=O)(=O)Cc3ccc(F)cc3)ncc2Cl)cc1
(16) CS(=O)(=O)c1ncc(Cl)c(C(=O)Nc2ccc(OC(F)F)cc2)n1
(17) O=C(Nc1ccc(F)cc1)c1nc(S(=O)(=O)Cc2ccccc2)ncc1Cl
(18) Cc1ccccc1CS(=O)(=O)c1ncc(Cl)c(C(=O)Nc2ccc(F)cc2)n1
entry no. | 13 | 14 | 15 | 16 | 17 | 18
RXFP1 ag | 0.3% | 0.2% | · | 11.9% | -2.4% | -0.5%
TCR act | 1.1% | 11.3% | · | -2.8% | -1.8% | 4.0%
RXFP1 antagonist | -3.9 | -14.3 | · | -82.4* | -104.8* | -103.5*
miR-21 FLuc | 13.2% | ? | · | ? | ? | ?
IL2 activator | -0.6 | -2.1 | · | -3.7 | -3.9 | -1.0
PINK1 expr mod | 2.82µM* | · | 3.5% | -1.7% | -1.0% | 0.6%

(19) COc1ccc2nc(NC(=O)c3nc(S(=O)(=O)Cc4ccccc4F)ncc3Cl)sc2c1
(20) Cc1cc(C(=O)NCc2nc(-c3ccccc3NC(=O)C3CCCO3)oc2C)nc(C)n1 (stereo not given)
(21) O=C(c1n[nH]c2c1CCCC2)N1CCOc2ccc(C(O)C3CCCCC3)cc2C1 (stereo not given)
(22) CCC1C(=O)NCCN1Cc1ccc2c(c1)CN(Cc1ccc(F)c(OC)c1)CCO2 (stereo not given)
(23) Cc1ccc(NC(=O)c2nc(S(=O)(=O)Cc3ccccc3)ncc2Cl)cc1
(24) O=C(NCc1ccccc1)c1nc(S(=O)(=O)Cc2ccc(F)cc2)ncc1Cl
entry no. | 19 | 20 | 21 | 22 | 23 | 24
RXFP1 ag | -1.1% | · | · | · | 1.4% | -0.2%
TCR act | · | · | · | · | 1.6% | ·
RXFP1 antagonist | -82.8* | · | · | · | -84.7* | -116.1*
miR-21 FLuc | ? | · | · | · | ? | ?
IL2 activator | · | · | · | · | -5.8 | ·
PINK1 expr mod | 5.1% | 0.0% | 1.7% | -0.7% | -0.6% | 0.4%

(25) Cc1nnc(NC(=O)c2nc(S(=O)(=O)Cc3ccccc3)ncc2Cl)s1
(26) Cn1c2ccccc2c2cc(/C=N/NC(=O)c3cc(O)cc(O)c3)ccc21
(27) Cn1c2ccccc2c2cc(/C=N/NC(=O)c3cc(O)ccc3O)ccc21
(28) COc1ccccc1-c1ccnc(-n2ncc(C(=O)NCc3cccc(C)n3)c2C)n1
(29) N#CC(C(=O)OC1CCCCC1)c1nc2ccccc2nc1N1CCOCC1 (stereo not given)
(30) CN1CCN(c2nc3ccccc3nc2C(C#N)C(=O)OC2CCCCC2)CC1 (stereo not given)
entry no. | 25 | 26 | 27 | 28 | 29 | 30
RXFP1 ag | 2.1% | 3.6% | 2.9% | · | 7.0% | 0.3%
TCR act | 3.0% | -8.0% | · | · | 0.1% | 1.1%
RXFP1 antagonist | -6.2 | -25.2 | -112.4* | · | 12.5 | -8.6
miR-21 FLuc | ? | -14.6% | -0.2% | · | -2.3% | -3.4%
IL2 activator | -4.8 | -3.3 | 0.3 | · | 69.6* | -2.1
PINK1 expr mod | -2.0% | -0.8% | ? | -0.1% | 7.9% | -1.9%

(31) O=C(CSc1nnc(-c2ccco2)c(-c2ccco2)n1)c1ccccc1
(32) CC(=O)c1ccc(NC(=O)CSc2nnc(-c3ccco3)c(-c3ccco3)n2)cc1
(33) O=C(CN1Cc2ccccc2OC(c2ccsc2)C1)NCC1OCCc2ccccc21 (stereo not given)
(34) CCCOc1cccc(C2c3c(-c4ccccc4O)n[nH]c3C(=O)N2Cc2ccco2)c1 (stereo not given)
(35) COCCN1C(=O)c2[nH]nc(-c3ccccc3O)c2C1c1ccc(Cl)c(Cl)c1 (stereo not given)
(36) Cc1ccc(O)c(-c2n[nH]c3c2C(c2ccc(F)cc2)N(Cc2ccco2)C3=O)c1 (stereo not given)
entry no. | 31 | 32 | 33 | 34 | 35 | 36
RXFP1 ag | 27.4% | -2.7% | · | 0.2% | -0.1% | -0.5%
TCR act | 7.7% | 6.0% | · | · | · | ·
RXFP1 antagonist | -96.8* | -71.4* | · | -80.1* | -70.0* | -63.9*
miR-21 FLuc | -4.3% | 0.4% | · | ? | ? | 16.7%
IL2 activator | -1.0 | -0.6 | · | · | · | ·
PINK1 expr mod | 2.2% | 7.4% | -1.3% | 3.6% | 1.1% | 3.6%

(37) O=C1c2[nH]nc(-c3ccccc3O)c2C(c2cccc(OCc3ccccc3)c2)N1CCCO (stereo not given)
(38) COCc1c(C(=O)N2CCCCCC2)cnn1-c1nccc(-c2cccs2)n1
(39) O=[N+]([O-])c1ccc(Cl)c(S(=O)(=O)/N=C(/c2ccccc2)N2CCOCC2)c1
(40) CCC(CC)NC(=O)c1cccc([N+](=O)[O-])c1C
(41) Cc1c(C(=O)NNc2cc(=O)n(C)c(=O)n2C)cccc1[N+](=O)[O-]
(42) O=C1C=CC(=O)c2c(O)c(N3CCN(CCOCCO)CC3)c(Br)c(O)c21
entry no. | 37 | 38 | 39 | 40 | 41 | 42
RXFP1 ag | 1.8% | · | -1.2% | 6.0% | 14.1µM* | ·
TCR act | · | · | 1.3% | 0.4%[46.1 µM] | 6.5% | 4.2%
RXFP1 antagonist | -64.1* | · | -60.8* | 0.0 | 24.9 | -105.0*
miR-21 FLuc | 21.5% | · | 3.9% | -6.8% | -1.5% | ·
IL2 activator | · | · | -1.0 | 2.4 | -2.1 | -0.7
PINK1 expr mod | 0.1% | -0.3% | -3.5% | 1.0% | 2.2% | -0.8%

(43) COc1cccc(CNC(=O)c2c(OC)cc(=O)n3c2CCN(C(=O)c2ccc(C)cc2C)CC3)c1
(44) COc1cccc(CNc2ccc(Br)cn2)c1O
(45) COc1cccc(CNc2ncc(Br)cc2Br)c1O
(46) CC(=O)c1ccc(-c2cc(F)cc3c2OC(CNC(=O)Cc2cn4ccsc4n2)C3)s1 (stereo not given)
entry no. | 43 | 44 | 45 | 46
RXFP1 ag | · | -1.0% | 3.0% | ·
TCR act | · | -4.6% | -1.9% | ·
RXFP1 antagonist | · | 3.2 | -78.0* | ·
miR-21 FLuc | · | -21.0% | -43.8% | ·
IL2 activator | · | -2.8 | -0.4 | ·
PINK1 expr mod | -0.5% | 17.5%[38.3 µM] | 2.8% | -0.2%
